Results: US20260258087A1, “PHARMACEUTICAL COMPOSITION FOR PREVENTING OR TREATING HEPATITIS B” (GWANGJU INSTITUTE OF SCIENCE AND TECHNOLOGY, priority 2022, published 2026)

Assays:
HeLa cells = assay: MTS cell-viability assay, HeLa; assay type: cell-based, human
BSC-1 cells = assay: MTS cell-viability assay, BSC-1; assay type: cell-based, monkey; settings: BSC-1, 200 μM

Q: Which “percentage cell viability at 100 μM” value (HeLa cells) does the source give for “Cyclosporine A [CsA, reference compound]” here?
A: 82 ± 5%

Q: What about the “percentage cell viability at 200 μM” value (BSC-1 cells) of the same substance?
A: 62.4 ± 0.4%
